Results: PubChem BioAssay AID1044 (The Scripps Research Institute Molecular Screening Center, 2008)
Only a part is listed here, and it is no random draw. The source made the active and inactive calls. No stated cut-off is given here; in the data, active means activation above about 80%; inactive means the rest.

The chains behind the UniProt entries cited, without tags or fusion partners.
UniProt P21453, whole entry: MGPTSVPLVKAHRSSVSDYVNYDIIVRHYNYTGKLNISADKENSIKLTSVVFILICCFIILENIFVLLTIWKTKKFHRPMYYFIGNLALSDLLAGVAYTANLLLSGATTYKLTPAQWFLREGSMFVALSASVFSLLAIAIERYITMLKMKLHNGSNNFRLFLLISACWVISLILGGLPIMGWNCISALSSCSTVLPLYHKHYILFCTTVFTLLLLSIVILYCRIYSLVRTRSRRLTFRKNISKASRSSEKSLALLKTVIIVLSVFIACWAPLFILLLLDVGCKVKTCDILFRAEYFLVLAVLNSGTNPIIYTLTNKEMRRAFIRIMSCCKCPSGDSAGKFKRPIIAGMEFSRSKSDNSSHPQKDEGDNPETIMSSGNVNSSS

Target: Sphingosine 1-phosphate receptor 1 (Homo sapiens) (UniProt P21453)
Test: activates the human S1P1 receptor (AID 1044)
Conditions: S1P1 agonist cell-based reporter assay; at 4.5 µM; hits give high values

Compound	activation
O=[N+]([O-])C1([N+](=O)[O-])COCOC1	inactive: -5.25%
